Measurements: ChEMBL document CHEMBL1148435, “N,N-dialkyl-4-[(8-azabicyclo[3.2.1]-oct-3-ylidene)phenylmethyl]benzamides, potent, selective delta opioid agonists” (Bioorg Med Chem Lett, 2004)

Assays:
[1] = biological target: T1, Delta-type opioid receptor (Homo sapiens, UniProt P41143); test: Binding affinity for delta opioid receptor
[2] = biological target: Mu-type opioid receptor (Homo sapiens, UniProt P35372); test: Binding affinity for mu opioid receptor
[3] = biological target: T1, Delta-type opioid receptor; test: Effective concentration against stimulation of [35S]GTP-gamma-S, binding in CHO cells transfected with the human opioid receptor delta 1

SMILES: CCN(CC)C(=O)c1ccc(N(c2ccccc2)C2CCNCC2)cc1
- Ki [1]: 35 nM
- Ki [2]: > 10000 nM
- EC50 [3]: 458 nM
